Patent US20240158355A1, “BET SUBFAMILY INHIBITORS AND METHODS USING SAME” (Baylor College of Medicine, priority 2021, published 2024)

Target: His-BRDT-BD2 (Homo sapiens (Human), UniProt Q58F21)
Settings: 0 = theoretically present in the library but not detected in the sequencing data

CNC(=O)c1ccc(C(=O)Nc2cc(NC(=O)c3ccc4c(c3)c(-c3ccc(N)cc3C)nn4C)ccc2C)cc1 [compound 9, N^1-(5-(3-(4-Amino-2-methylphenyl)-1-methyl-1H-indazole-5-carboxamido)-2-methylphenyl)-N^4-methylterephthalamide]
Count (observed molecule count in the DEC-Tec screen against BRDT-BD2): 721
